## scFv variants of Ab-14 (heavy chain) against a SARS-CoV-2 spike peptide

Values reported by Engelhart et al. 2022, doi:10.1038/s41597-022-01779-4 (FLAb copy).

All variants were tested on one target, the spike HR2 peptide PDVDLGDISGINAS (SARS-CoV-2).

Each scFv is VH, a (GGGGS)3 linker, VL, as in the parent Ab-14, and differs from it in the CDRs of the heavy chain only.
VH: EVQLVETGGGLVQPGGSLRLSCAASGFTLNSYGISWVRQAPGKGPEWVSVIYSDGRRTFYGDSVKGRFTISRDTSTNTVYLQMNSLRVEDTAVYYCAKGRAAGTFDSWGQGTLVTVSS
VL: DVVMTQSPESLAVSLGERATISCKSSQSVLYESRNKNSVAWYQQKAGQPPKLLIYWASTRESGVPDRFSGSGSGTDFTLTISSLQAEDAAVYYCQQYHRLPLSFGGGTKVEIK

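Phage display of a naive human antibody library on the peptide gave the parent. AAYL49 was designed without a model: most single CDR substitutions and a random sample of double and triple ones. The scFvs were displayed on barcoded MATa yeast, the peptide on MATalpha yeast. Binding brings cells together so that they mate, and sequencing counts the barcode pairs among the diploids. A regression on co-assayed BCL2-family reference pairs converts the normalised counts of each replicate to an apparent Kd. Mating was done three times.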

Positions count from residue 1 of the parent VH; G26K puts K in place of G.
Values are apparent Kd, the geometric mean of the replicates that gave a signal; lower means stronger binding.
"nd" marks a missing value. The strain was present, yet no cells mated with the target were sequenced in any replicate, which points to weak or no binding.
Empty control strains, which show no peptide, gave a signal in 15% of pairings with library AAYL49; the median was 11 µM and 95% of these signals were weaker than 680 nM. No background was subtracted.
For reference, the parent read 4.4 nM as the reference entry and 13 µM (one replicate of three) as a member of this library.

| changes | Kd (apparent) | detected |
|---|---|---|
| G26K/T104S | 150 nM | 3/3 |
| I34M/I51G/D106Q | nd | 0/3 |
| I34P/D62L/G99C | nd | 0/3 |
| N30F/I51Q/R100A | nd | 0/3 |
| S31K/R56Q/Y60K | 400 µM | 1/3 |
| T28C/N30D/G61I | 130 nM | 3/3 |
| S53Y/R56S/F59R | 440 nM | 3/3 |
| G26R/I34M/T104H | nd | 0/3 |
| G26Y/Y32A/A101R | 69 µM | 1/3 |
| G55P/G61S/G103P | 64 µM | 1/3 |
| S31V/I51V | 46 µM | 1/3 |
| R56I/V64L/S107K | nd | 0/3 |
| Y60K/D62P/S107N | 51 µM | 1/3 |
| Y32A/T58S/G99A | 180 nM | 1/3 |
| G33W/S35W/R100I | 42 µM | 3/3 |
| G26D/R57L/F105K | nd | 0/3 |
| I34G/I51D/R56I | nd | 0/3 |
| G33K/G55A/T104L | nd | 0/3 |
| F27S/S35M/D54F | nd | 0/3 |
| F27M/N30K/I51Y | 57 µM | 2/3 |
| S35Y/S53V | 240 µM | 1/3 |
| S35R/R100H/F105Y | nd | 0/3 |
| V64P/F105W/D106Q | 8.9 µM | 2/3 |
| T28W/I34S/T58W | nd | 0/3 |
| F27R/V50S/I51S | 49 µM | 1/3 |
| I34N/R56A/A101I | 11 µM | 1/3 |
| I34V/G61I/V64N | 210 µM | 1/3 |
| I34E/F105W | nd | 0/3 |
| S31A/G33L/K65V | nd | 0/3 |
| S53N/F59G/K65V | nd | 0/3 |
| V50P/D54Y/T104A | 18 µM | 1/3 |
| Y52F/S63Q/R100E | 24 nM | 3/3 |
| N30C/D62N/S63I | nd | 0/3 |
| G26F/F59E/F105E | nd | 0/3 |
| I34A/V50Q/G99L | nd | 0/3 |
| V64T/T104Q/F105Q | nd | 0/3 |
| N30A/G55M/R57I | 770 µM | 1/3 |
| S31Y/I34F/K65P | nd | 0/3 |
| T28L/A101R/D106M | nd | 0/3 |
| G33I/G99L/A101L | 75 nM | 3/3 |
| F27C/R56G | nd | 0/3 |
| S63L/K65S/A102V | 13 µM | 2/3 |
| G33Y/T58P/K65E | 17 µM | 1/3 |
| F27S/L29R/Y52C | nd | 0/3 |
| G61V/S107F | 23 nM | 3/3 |
| S31E/K65A/G99C | 11 µM | 1/3 |
| F27N/G55R/A101M | nd | 0/3 |
| K65V/A101Y/D106R | 32 µM | 1/3 |
| R57H/F59H/K65Y | nd | 0/3 |
| G55T/D62Y | nd | 0/3 |
| Y52M/T104C/S107D | nd | 0/3 |
| F27S/Y32I/S35M | nd | 0/3 |
| T28Q/N30E/T58D | 42 nM | 3/3 |
| L29C/G99Q/A101H | nd | 0/3 |
| G26W/Y60N/F105A | nd | 0/3 |
| R57G/D62I/V64G | 40 µM | 1/3 |
| F27P/T28G/G33Y | nd | 0/3 |
| T58L/G103R/T104F | nd | 0/3 |
| G26K/S31W/S63A | nd | 0/3 |
| S53K/K65G/F105I | nd | 0/3 |
| F27A/L29C/R57F | 14 µM | 1/3 |
| T58Q/S63R/S107F | 1.1 µM | 3/3 |
| L29R/F59D/T104R | nd | 0/3 |
| L29A/F59T/G61V | nd | 0/3 |
| G33P/T104H | 54 µM | 2/3 |
| R57Q/D62N/S63R | 2.4 µM | 1/3 |
| Y52H/D54N/A102E | 6.0 µM | 2/3 |
| N30C/T58M | 17 nM | 3/3 |
| Y60P/G103Y/S107Q | nd | 0/3 |
| V64N/K65W | nd | 0/3 |
| L29V/D54I/R57F | nd | 0/3 |
| R56Q/F59V/K65R | 18 nM | 3/3 |
| L29P/Y52R | nd | 0/3 |

Top 6 of the variants detected in all replicates, tightest first:

{"changes": "N30C/T58M", "Kd (apparent)": "17 nM", "detected": "3/3"}
{"changes": "R56Q/F59V/K65R", "Kd (apparent)": "18 nM", "detected": "3/3"}
{"changes": "G61V/S107F", "Kd (apparent)": "23 nM", "detected": "3/3"}
{"changes": "Y52F/S63Q/R100E", "Kd (apparent)": "24 nM", "detected": "3/3"}
{"changes": "T28Q/N30E/T58D", "Kd (apparent)": "42 nM", "detected": "3/3"}
{"changes": "G33I/G99L/A101L", "Kd (apparent)": "75 nM", "detected": "3/3"}